Earlier results on 1 substance are cited in patent US5486463A, “TNF-muteins” (Hoffmann-La Roche Inc., priority 1992, dated 1996).

The test system of this series is C57B16 mice.

Regarding “hTNF-α: human Tumor Necrosis Factor-alpha, 157 amino acids, SEQ ID: 2”, the LD50 entry was “about 500 μg/mouse”.
